Source: PubChem BioAssay (National Center for Advancing Translational Sciences (NCATS))
A549 viability – A549 cytotoxicity, counter-screen for Nrf2 inhibitors. A549 ARE-Fluc cells, CellTiter-Fluor viability, 18-24 h. Potency, µM (doses to about 46 µM), inactives show at the highest dose activity change, negative = cytotoxicity, usual class: inhibitors. actives 0.16% (n = 390,000); note: potency is the fitted concentration of half-maximal effect; % is set by controls: 0 for no effect and ±100 for the full control effect
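A549 ARE-Fluc cells in 5% FBS OPTI-MEM, 5000 cells/well, rested 2 h then exposed to compounds in concentration-response for 18-24 h at 37 °C. Viability by CellTiter-Fluor fluorescence (Ex 405/Em 525) after 30 min; luciferase luminescence (BugLite, 15 min, RT) read afterwards.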
Nrf2 inh – Nrf2 pathway inhibition; A549 ARE-Fluc reporter, luciferase luminescence, 18-24 h; Potency, µM (series often up to 46 µM), for the others: top-dose activity change, negative = inhibition, actives largely listed as inhibitors; actives 2.1% (n = 360,000); note: potency is the fitted concentration of half-maximal effect; % is set by controls: 0 for no effect and ±100 for the full control effect; nearly all actives have a fitted effect of over 60% in size
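In this cell-based qHTS, ARE-driven firefly luciferase in A549 cells reports Nrf2 activity; the luminescent signal after BugLite lysis is the measured value, with a prior CellTiter-Fluor read for cell health.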
Nrf2 ARE act – Nrf2 pathway activation; AREc32 ARE-luciferase reporter (MCF7-derived line), luminescence, 24 h; Potency, µM (series often up to 46.1 µM), for the others: at the top dose activation, usual class: activators; actives 0.31% (n = 410,000); note: potency is the fitted concentration of half-maximal effect; % of control where 0% means no effect; nearly all actives have a fitted effect of over 65% in size
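Cells of the AREc32 ARE-luciferase line are plated in OPTI-MEM containing 5% FBS and left overnight at 37 deg C. Compounds are pinned in, incubation continues 24 hr, and firefly luciferase signal is then measured.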
Mito fusion yeast – inhibitors of mitochondrial division or activators of mitochondrial fusion | S. cerevisiae fusion-defective mutant growth rescue, CellTiterGlo 48 h | Potency, µM (titrated, usually from 46.1 µM), for the others: at the top dose growth rescue (activation), usual class: activators | actives 0.23% (n = 320,000) | AID 485298; note: potency is the fitted concentration of half-maximal effect; % of control where 0% means no effect; nearly all actives have a fitted effect of over 45% in size
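Luminescent cell viability in 1536-well qHTS format served as the measure of rescued growth in ts fusion-mutant S. cerevisiae cultured on non-fermentable YPEG for 48 hours at 37C.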
Glioma ERSR ind – ER stress response induction in glioma; actives 0.02% (n = 420,000); U87-MG GRP78 promoter luciferase reporter, 16 h; Potency, µM, without a hit: at the top dose activation, most hits filed as activators; note: potency is the fitted concentration of half-maximal effect; series mostly up to about 76 µM; % of control where 0% means no effect; nearly all actives have a fitted effect of over 35% in size
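ERSR induction read as luciferase luminescence (Bright-Glo, 10 min at room temperature) in stably transfected human U87-MG glioma cells exposed to compounds for 16 h, using GRP78 as sensor.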
miR-21 FLuc – raises the signal of a miR-21 reporter | HeLa miR-21 FLuc reporter, luciferase, 48 h | Potency, µM (highest dose often 38.3 µM), without a hit: at the top dose reporter change, positive = more light | 340,000 tested, under 10 active; active = well fitted rising curve with a large enough effect; inconclusive = small, poorly fitted or top-dose-only effect; inactive = no such curve, though single readings can be large or run the other way;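 note: % of control where 0% means no effect; miR-21 action dims this reporter so a rising signal means less miR-21 action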
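HeLa cells stably expressing CMV-driven firefly luciferase with a downstream miR-21 binding sequence, endogenously expressing miR-21, were treated with titrations (up to about 40uM final) for 48 hours at 37 degree Celsius. Luciferase luminescence was read after lysis.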
Starred values were filed as active, the others as inactive; u = inconclusive; x = no result given; [ ] = dose if it differs, or a comment. Shown are actives, neighbours in structure and some others; about 2.3% of the full set was active somewhere. Unless noted, calls come from the whole dose curve; as a rule, active = well fitted curve in the direction sought with a large enough effect; inconclusive = small, poorly fitted or top-dose-only effect, or another doubt; inactive = no such curve, though single readings can be large; an effect the other way counts as inactive or inconclusive.

Start of the data: the first five compounds as a preview:
Value order: A549 viability | Nrf2 inh | Nrf2 ARE act | Mito fusion yeast | Glioma ERSR ind | miR-21 FLuc
1. COc1cc(C(=O)N2CCN(c3ncnc4sc(C)c(C)c34)CC2)cc(OC)c1OC
 : u | 10.3µM* | 0.2% | -1.3% | -4.2% | 18.6%
2. O=C(NCCCc1nc2ccccc2n1CCCCOc1ccccc1)C1CCCCC1
 : u | u | x | x | -5.6% | x
3. CCC(=O)Nc1ccc(S(=O)(=O)N2CCc3ccccc32)cc1
 : u | 1.6% | -0.9% | 5.6% | -5.8% | 1.6%
4. O=C(NCc1ccco1)c1ccc(Cl)c(S(=O)(=O)N2CCc3ccccc32)c1
 : 2.4% | 23.1µM* | 3.2% | u | -0.4% | 1.2%
5. O=C(Nc1ccc(S(=O)(=O)N2CCc3ccccc32)cc1)c1ccco1
 : -0.5%[1.84 µM] | 23.1µM* | 6.9% | 6.3% | -1.1% | 10.5%

All compounds of this part, repeating the preview:
Value order: A549 viability | Nrf2 inh | Nrf2 ARE act | Mito fusion yeast | Glioma ERSR ind | miR-21 FLuc
1. COc1cc(C(=O)N2CCN(c3ncnc4sc(C)c(C)c34)CC2)cc(OC)c1OC
 : u | 10.3µM* | 0.2% | -1.3% | -4.2% | 18.6%
2. O=C(NCCCc1nc2ccccc2n1CCCCOc1ccccc1)C1CCCCC1
 : u | u | x | x | -5.6% | x
3. CCC(=O)Nc1ccc(S(=O)(=O)N2CCc3ccccc32)cc1
 : u | 1.6% | -0.9% | 5.6% | -5.8% | 1.6%
4. O=C(NCc1ccco1)c1ccc(Cl)c(S(=O)(=O)N2CCc3ccccc32)c1
 : 2.4% | 23.1µM* | 3.2% | u | -0.4% | 1.2%
5. O=C(Nc1ccc(S(=O)(=O)N2CCc3ccccc32)cc1)c1ccco1
 : -0.5%[1.84 µM] | 23.1µM* | 6.9% | 6.3% | -1.1% | 10.5%
6. O=S(=O)(NC1CCCC1)c1ccc(S(=O)(=O)N2CCc3ccccc32)cc1
 : u | 14.6µM* | 2.7% | 7.0% | 0.6% | 20.7%
7. COc1ccc(NC(=O)CSc2nnc(Cc3ccc(C)cc3)c(=O)n2N)cc1OC
 : -3.2% | -9.8% | -0.3% | -2.5% | -4.5% | x
8. O=C(c1cccc(S(=O)(=O)N2CCCC2)c1)c1cccc(S(=O)(=O)N2CCCC2)c1
 : -14.9% | 8.2µM* | -0.4% | 2.9% | -2.0% | 28.5%
9. O=C(NCCOc1ccc(Cl)cc1)c1cccc(S(=O)(=O)N2CCCC2)c1
 : -0.2% | 23.1µM* | -0.5% | 0.7% | -2.3% | x
10. O=C(NCc1ccc2c(c1)OCO2)c1cccc(S(=O)(=O)N2CCCCC2)c1
 : -8.6% | 14.6µM* | -0.3% | -0.8% | -5.8% | -6.4%
11. O=C(Nc1ncccn1)C1=C(O)c2ccccc2S(=O)(=O)N1Cc1ccccc1
 : 1.1% | 5.1% | -0.4% | 3.0% | 0.2% | -0.5%
12. O=C(O)c1cccc(-c2ccc(/C=c3/sc4nc5ccccc5n4c3=O)o2)c1
 : 14.1% | 36.2% | 15.4% | 31.6µM* | -1.1% | -24.6%
13. CCc1cc(=O)oc2cc(O[C@@H]3O[C@H](CO)[C@@H](O)[C@H](O)[C@H]3O)c(Cl)cc12
 : 0.0% | -2.1% | -0.5% | 26.8% | -1.9% | 11.5%
14. CCc1cc(Cn2nc(-c3ccccc3)cc2C(=O)NCc2cccs2)on1
 : -24.2% | u | 5.3% | 12.6µM* | -1.1% | x
15. CC(C)C1(C)NC(c2ccc3c(c2)OCO3)=CC(c2ccccc2O)N1 (configuration not stated)
 : -1.2% | 24.6% | x | x | 3.8% | x
16. Cc1cc(N/N=C/c2cccc(Cl)c2)nc(-n2nc(C)cc2C)n1
 : -20.8% | 16.4µM* | 0.1% | 5.8% | -6.2% | 0.8%
17. Cc1cc(N/N=C/c2cccc([N+](=O)[O-])c2)nc(-n2nc(C)cc2C)n1
 : -10.5% | -24.2% | -0.1% | -14.6% | -3.0% | 6.4%
18. Nc1cc(C(=O)O)c(N)c2c1C(=O)c1ccccc1C2=O
 : u | u | 1.7% | -12.4% | -11.6% | u
19. Nc1c(C(=O)O)ccc2c1C(=O)c1ccccc1C2=O
 : 18.4µM* | -3.2% | 0.7% | 15.2% | 4.3% | 1.2%
20. Cc1nc2ccc(NS(=O)(=O)c3ccccc3Cl)cc2s1
 : -0.5% | -18.7% | 0.7% | 0.5% | -3.6% | x
21. CSc1nc2ccc(NS(=O)(=O)c3cccc(Cl)c3Cl)cc2s1
 : -1.5% | -11.9% | 0.5% | 35.5µM* | -0.6% | -6.4%
22. N#Cc1cccn1-c1nccc(-c2cccs2)n1
 : -1.4% | u | 4.47µM* | 2.3% | 2.6% | -30.9%
23. Cc1ccc(C)n1-c1nccc(-c2cccs2)n1
 : u | u | u | -3.3% | 6.0% | -2.4%
24. CCOc1ccc(NC(=O)C/C(C)=N/NC(=O)c2cnccn2)cc1
 : -0.6% | 13.1% | -0.4% | -5.5% | 1.4% | -13.7%
25. CC(C)=NNc1cnnc2ccc([N+](=O)[O-])cc12
 : x | x | 3.55µM* | x | -1.2% | x
26. COc1ccc2cc3cc(C(=O)N4CCN(c5ccc(C(C)=O)cc5)CC4)sc3nc2c1Cl
 : 5.5% | x | -0.8% | x | -2.3% | -2.4%
27. Cc1nn(-c2ccccc2)c(C)c1/C=N/NC(=O)c1ccccc1O
 : -0.2% | u | -0.2% | -5.6% | 3.9% | -30.4%
28. Cc1ccc(S(=O)(=O)N(CC(=O)NCCc2ccc(Cl)cc2)c2ccccc2C)cc1
 : u | 25.9µM* | -0.9% | x | -4.0% | u
29. CCOc1ccccc1N(CC(=O)NCCc1ccc(OC)cc1)S(=O)(=O)c1ccc(C)cc1
 : x | x | 0.6% | x | -3.4% | x
30. Cc1cc(C)nc(NC(=NCCc2c[nH]c3ccc(Cl)cc23)NC(=O)c2ccccc2C)n1
 : -7.5% | -25.0% | -0.1% | x | 1.4% | -4.8%
31. Cc1cc(C)nc(NC(=NCCc2c[nH]c3ccccc23)NC(=O)C(C)(C)C)n1
 : u | 20.6µM* | -0.3% | 0.9% | -2.6% | -0.3%
32. CS(=O)(=O)Nc1ccc2c(c1)nc1n2CCOC1
 : 10.1% | 20.5% | -0.2% | 2.4% | -5.1% | -8.9%
33. O=C(CC1C[C@H](C(=O)N2CCOCC2)[C@@]2(CCC3CCCC3)c3[nH]c4ccccc4c3CCN2C1=O)NCC12CC3CC(CC(C3)C1)C2 (some centres not stated)
 : u | 23.1µM* | -0.3% | x | 1.8% | x
34. CC[C@]12c3[nH]c4ccc(OC)cc4c3CCN1C(=O)C(CC(=O)NCC13CC4CC(CC(C4)C1)C3)C[C@@H]2C(=O)N1CCN(C(=O)C2CC2)CC1 (some centres not stated)
 : u | u | 7.1% | x | -1.3% | x
35. CC[C@]12c3[nH]c4ccc(Cl)cc4c3CCN1C(=O)[C@@H](CC(=O)NCC13CC4CC(CC(C4)C1)C3)C[C@@H]2C(=O)N1CCN(C(=O)C2CC2)CC1
 : -28.9% | 23.1µM* | -1.4% | x | 0.2% | x
36. COc1ccc(CNC(=O)C[C@H]2C[C@H](C(=O)N3CCOCC3)[C@@]3(CCC4CCCC4)c4[nH]c5cc(-c6ccco6)ccc5c4CCN3C2=O)cc1OC
 : -28.8% | 23.1µM* | 2.3% | x | -2.4% | x
37. O=C(CC1C[C@H](C(=O)N2CCOCC2)[C@@]2(CCC3CCCC3)c3[nH]c4ccccc4c3CCN2C1=O)NCCN1CCOCC1 (some centres not stated)
 : 5.6% | -7.7% | -0.4% | x | -0.9% | x
38. Cc1ccc(OCCC(=O)OCC(=O)NC(=O)NC2CCCC2)cc1
 : -6.3% | 2.4% | -0.2% | -1.1% | -3.1% | x
39. COC(=O)c1ccc(Oc2cc(C)nc(NCc3ccccc3)n2)cc1
 : -9.8% | -11.4% | 2.2% | 2.7% | -6.0% | -8.4%
40. Cc1cc(Oc2ccc(C#N)cc2)nc(NCc2ccccc2)n1
 : -7.0% | 16.4µM* | 0.2% | 12.3% | -5.3% | 6.1%
41. N#Cc1c(-c2cccs2)cc(-c2ccccn2)nc1N
 : 0.5% | x | 7.94µM* | -9.8% | u | -12.0%
42. COC(=O)C1=C(C)NC(C)=C([N+](=O)[O-])C1c1ccccc1C(F)(F)F (configuration not stated)
 : u | u | 3.9% | 13µM* | -5.5% | 2.3%
